The source of these data is patent US11058674B2 (priority 2016, dated 2021).

Sequences of proteins named here, by UniProt entry; tags and fusion partners are left off. A change or cut given only in a name is not applied to a line headed by its entry.
UniProt P41146: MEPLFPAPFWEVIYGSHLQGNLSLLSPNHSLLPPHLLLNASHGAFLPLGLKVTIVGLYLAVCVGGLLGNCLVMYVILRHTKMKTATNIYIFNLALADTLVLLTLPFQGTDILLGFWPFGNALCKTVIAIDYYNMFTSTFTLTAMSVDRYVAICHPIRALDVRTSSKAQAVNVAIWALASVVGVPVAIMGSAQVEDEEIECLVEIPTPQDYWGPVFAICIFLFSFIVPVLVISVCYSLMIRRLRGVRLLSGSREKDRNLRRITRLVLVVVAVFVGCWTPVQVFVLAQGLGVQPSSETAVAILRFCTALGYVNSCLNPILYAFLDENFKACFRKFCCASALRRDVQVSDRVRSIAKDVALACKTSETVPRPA
UniProt P35372, whole entry, looked up: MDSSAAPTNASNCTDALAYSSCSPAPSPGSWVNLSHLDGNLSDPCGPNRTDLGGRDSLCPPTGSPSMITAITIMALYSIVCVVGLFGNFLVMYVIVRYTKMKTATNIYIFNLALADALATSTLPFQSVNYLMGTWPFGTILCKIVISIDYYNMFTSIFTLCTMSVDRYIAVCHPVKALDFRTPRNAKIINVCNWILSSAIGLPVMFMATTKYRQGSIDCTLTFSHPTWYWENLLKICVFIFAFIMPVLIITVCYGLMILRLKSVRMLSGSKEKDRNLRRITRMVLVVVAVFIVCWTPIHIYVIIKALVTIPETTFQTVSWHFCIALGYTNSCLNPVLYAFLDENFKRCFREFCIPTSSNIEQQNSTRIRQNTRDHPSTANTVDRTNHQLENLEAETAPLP

One data set has as its target NOP receptor (Homo sapiens, UniProt P41146). Put plainly: Affinity to the NOP receptor.
Another data set has as its target MOP receptor (Homo sapiens, UniProt P35372). Put plainly: Affinity to the MOP receptor.
For data set [1], the system named is rhesus monkeys. Put plainly: Cocaine self-administration in monkey.
Data set [2] concerns male Long-Evans hooded rats. Put plainly: Stress-induced (footshock) cocaine seeking behavior in rat, reinstatement test. The conditions noted are these: Compound A 3 mg/kg p.o., 30 minutes before session.
The test system of data set [3] is rhesus monkeys. The data set can be described thus: Food acquisition test (Food 1, Food 2) in monkey, central nervous system (CNS) depressant action.

On to `CNC(=O)Cn1c(=O)n(C2CCN([C@@H]3CCCc4c(C)cccc43)CC2)c2ccccc21`, for which, on NOP receptor, the “affinity to the NOP receptor” value was “high affinity”. For the same molecule, the NOP receptor selectivity result at NOP receptor (relative to MOP receptor) is reported as “high NOP receptor selectivity”. Also, on MOP receptor, the “affinity to the MOP receptor” value was “low affinity”. Also, in the data set on rhesus monkeys [1] (Compound A 0.1, 0.32 and 0.56 mg/kg i.m.), the “number of rewards in the cocaine self-administration” value was “dose-dependently reduced”. The “number of rewards at the strongest rewarding effects of cocaine” value in the data set on rhesus monkeys [1] (cocaine 0.01 mg/kg/inj, Compound A 0.1 or 0.32 mg/kg) was “significantly decreased”. The “cocaine seeking behavior induced by the footshock stress (active lever presses)” value in data set [2] is “significantly suppressed”. In addition, the “number of food acquisition in food component 1 (Food 1)” value in the data set on rhesus monkeys [3] (Compound A 0.56 mg/kg i.m.) is recorded as “reduced”; with rhesus monkeys [3] (Compound A 0.1 and 0.32 mg/kg i.m.), “did not affect”. Also, the “reduction of the number of food acquisition in food component 2 (Food 2)” value in the data set on rhesus monkeys [3] (Compound A 0.56 mg/kg i.m.) is reported as “not observed”.
